Data reported in US20250340552A1, “COMPOUNDS, COMPOSITIONS AND METHODS OF TREATING DISORDERS” (HOTSPOT THERAPEUTICS, INC., priority 2022, published 2025).

The chains behind the UniProt entries cited, without tags or fusion partners.
UniProt Q13191, whole entry: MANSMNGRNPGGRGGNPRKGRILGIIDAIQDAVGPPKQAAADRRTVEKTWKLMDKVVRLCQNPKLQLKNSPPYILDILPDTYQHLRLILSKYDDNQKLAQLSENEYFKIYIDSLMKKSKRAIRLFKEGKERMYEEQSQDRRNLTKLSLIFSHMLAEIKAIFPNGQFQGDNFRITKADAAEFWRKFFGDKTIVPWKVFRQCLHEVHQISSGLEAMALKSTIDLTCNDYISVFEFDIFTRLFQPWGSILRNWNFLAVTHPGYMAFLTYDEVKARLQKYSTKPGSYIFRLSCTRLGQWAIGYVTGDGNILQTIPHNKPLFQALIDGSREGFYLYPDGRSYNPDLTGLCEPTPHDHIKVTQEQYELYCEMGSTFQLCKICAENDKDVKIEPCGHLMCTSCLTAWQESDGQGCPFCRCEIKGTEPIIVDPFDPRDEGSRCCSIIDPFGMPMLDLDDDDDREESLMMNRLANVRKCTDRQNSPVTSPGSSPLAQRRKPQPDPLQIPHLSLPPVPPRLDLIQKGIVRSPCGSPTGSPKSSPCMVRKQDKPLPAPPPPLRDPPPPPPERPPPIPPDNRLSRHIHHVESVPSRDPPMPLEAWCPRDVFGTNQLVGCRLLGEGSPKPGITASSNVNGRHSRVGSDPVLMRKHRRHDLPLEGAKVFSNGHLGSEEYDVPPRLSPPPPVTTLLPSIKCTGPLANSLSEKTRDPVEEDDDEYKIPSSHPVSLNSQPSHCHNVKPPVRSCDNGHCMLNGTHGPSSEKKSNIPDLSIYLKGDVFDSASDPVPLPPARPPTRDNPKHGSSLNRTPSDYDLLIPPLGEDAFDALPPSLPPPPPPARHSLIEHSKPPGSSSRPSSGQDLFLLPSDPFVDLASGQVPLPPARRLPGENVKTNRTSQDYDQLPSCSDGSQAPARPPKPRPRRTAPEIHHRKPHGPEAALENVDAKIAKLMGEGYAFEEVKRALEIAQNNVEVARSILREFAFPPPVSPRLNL

target: T1, Cbl-B (Homo sapiens, UniProt Q13191); assay: MSD-based assay for degradation of Cbl-B in THP-1 cells; format: cell-based; details: Cbl-B degradation, Jurkat cells seeded (heading: THP-1 cells), 24 hours incubation, MSD readout; read-out: Dmax
T1 construct: MSD-Based Assay for Degradation of Cbl-B in THP-1 Cells; endogenous in cells; host or cells: THP-1 (title) / Jurkat (protocol text)
Description: MSD-Based Assay for Degradation of Cbl-B in THP-1 Cells
Assay plates were then shaken at 600 rpm for 5 minutes, followed by incubation for 24 hours in the 37° C. TC incubator. […] Cell debris was then spun down at maximum speed (about 3200 g) for 30 min and lysates frozen in the −80° C. fridge. Meanwhile, MSD plates (L15XA-3) were coated overnight at 4° C. with 1 ug/mL capture antibody (Anti-Cbl-B antibody, 246C5a and Mouse mAB, ab54362). […] Blocking buffer was 3% Blocker A (MSD, R93BA-4) in TBST. Plates were washed 3× with 150 ul/well of 1×TBST and sample lysates (70 ul/well) then added, followed by shaking for 1 hr at RT, 600 rpm. […] Plates were again washed 3× with 150 ul/well of 1×TBST, followed by addition of Secondary Detection antibody, SULFO-TAG anti-species antibody (Anti Rabbit Antibody (R32AB-5) MSD, R32AB-1) at a final concentration of 1 ug/ml and 25 uL/well, followed by shaking for 1 hr at RT, 600 rpm. Plates were again washed 3× with 150 ul/well of 1×TBST, followed by addition of 1×MSD reading buffer (MSD, R92TC-2), 150 ul/well, diluted from 4× with water.
Compound Dmax were binned into A through D as follows: A indicates >70%, B indicates 50-70%, C indicates 30-50%, D indicates <30%.

| SMILES | Dmax [%] |
| --- | --- |
| Cn1cnnc1CC1(c2cccc(-n3cc4c(C(F)(F)F)cc(CN5CCN(CCc6ccc(C7CCN(c8ccc9c(c8)CN([C@H]8CCC(=O)NC8=O)C9=O)CC7)cc6)CC5)cn4c3=O)c2)COC1 [Compound 230] | > 70 |
| Cn1cnnc1[C@@H](c1cccc(-n2cc3c(C(F)(F)F)cc(CN4CCC[C@H](OCc5ccc(CC6CCN(c7ccc8c(c7)CN([C@H]7CCC(=O)NC7=O)C8=O)CC6)cc5)C4)cn3c2=O)c1)C1CCC1 (single isomer, unassigned) [Compound 188] | 30 to 50 |
| Cn1cnnc1[C@@H](c1cccc(-n2cc3c(C(F)(F)F)cc(CN4CCC(N5CCC(CN6CCN(c7ccc8c(c7)CN([C@H]7CCC(=O)NC7=O)C8=O)CC6)CC5)CC4)cn3c2=O)c1)C1CCC1 [Compound 136] | 30 to 50 |
| Cn1cnnc1[C@@H](c1cccc(-n2cc3c(C(F)(F)F)cc(CN4CCC[C@@H](OCc5ccc(CC6CCN(c7ccc8c(c7)CN([C@H]7CCC(=O)NC7=O)C8=O)CC6)cc5)C4)cn3c2=O)c1)C1CCC1 (single isomer, unassigned) [Compound 192] | 30 to 50 |
| CN(CCN(C)C(=O)c1ccc(N2CCN(c3ccc4c(c3)CN([C@H]3CCC(=O)NC3=O)C4=O)CC2)cc1)Cc1cc(C(F)(F)F)c2cn(-c3cccc([C@H](c4nncn4C)C4CCC4)c3)c(=O)n2c1 (single isomer, unassigned) [Compound 140] | 30 to 50 |
| Cn1cnnc1[C@@H](c1cccc(-n2cc3c(C(F)(F)F)cc(CN4CCC[C@H](OCc5ccc(CN6CCN(c7ccc8c(c7)CN([C@H]7CCC(=O)NC7=O)C8=O)CC6)cc5)C4)cn3c2=O)c1)C1CCC1 [Compound 82] | 30 to 50 |

same assay, conditions: THP-1

| SMILES | Dmax [%] |
| --- | --- |
| Cn1cnnc1[C@@H](c1cccc(-n2cc3c(C(F)(F)F)cc(CN4CCC(CCN5CCC(CN6CCN(c7ccc8c(c7)CN([C@@H]7CCC(=O)NC7=O)C8=O)CC6)CC5)CC4)cn3c2=O)c1)C1CCC1 (single isomer, unassigned) [Compound 109] | 50 to 70 |
| Cn1cnnc1[C@@H](c1cccc(-n2cc3c(C(F)(F)F)cc(CN4CCC[C@H](OCc5ccc(CN6CCN(c7ccc8c(c7)CN([C@@H]7CCC(=O)NC7=O)C8=O)CC6)cc5)C4)cn3c2=O)c1)C1CCC1 (single isomer, unassigned) [Compound 81] | < 30 |
| CN(CCO[C@H]1CCCN(Cc2cc(C(F)(F)F)c3cn(-c4cccc([C@H](c5nncn5C)C5CCC5)c4)c(=O)n3c2)C1)C(=O)c1ccc(N2CCN(c3ccc4c(c3)CN([C@@H]3CCC(=O)NC3=O)C4=O)CC2)cc1 (single isomer, unassigned) [Compound 105] | > 70 |
| Cn1cnnc1[C@@H](c1cccc(-n2cc3c(C(F)(F)F)cc(CN4CCC[C@@H](OCc5ccc(CN6CCN(c7ccc8c(c7)CN(C7CCC(=O)NC7=O)C8=O)CC6)cc5)C4)cn3c2=O)c1)C1CCC1 (stereo partly shown) [Compound 95] | 50 to 70 |
| CN(CCN(C)C(=O)c1ccc(N2CCN(c3ccc4c(c3)CN([C@@H]3CCC(=O)NC3=O)C4=O)CC2)cc1)Cc1cc(C(F)(F)F)c2cn(-c3cccc([C@H](c4nncn4C)C4CCC4)c3)c(=O)n2c1 (single isomer, unassigned) [Compound 139] | < 30 |
| CN(CCO[C@@H]1CCCN(Cc2cc(C(F)(F)F)c3cn(-c4cccc([C@H](c5nncn5C)C5CCC5)c4)c(=O)n3c2)C1)C(=O)c1ccc(N2CCN(c3ccc4c(c3)CN([C@@H]3CCC(=O)NC3=O)C4=O)CC2)cc1 (single isomer, unassigned) [Compound 103] | 50 to 70 |
| Cn1cnnc1[C@@H](c1cccc(-n2cc3c(C(F)(F)F)cc(CN4CCC[C@H](OCc5ccc(CC6CCN(c7ccc8c(c7)CN([C@@H]7CCC(=O)NC7=O)C8=O)CC6)cc5)C4)cn3c2=O)c1)C1CCC1 (single isomer, unassigned) [Compound 187] | < 30 |
